# Ab-14 light chain CDR variants: yeast mating affinities

Source: Li et al. 2023 (doi:10.1038/s41467-023-39022-2), MIT Lincoln Laboratory and A-Alpha Bio; data file from the FLAb repository.

Binding partner: SARS-CoV-2 spike HR2 peptide, sequence PDVDLGDISGINAS.

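Phage display of a naive human antibody library on the peptide gave the parent. This is the validation round: designs drawn from the data on random variants, tested in the same kind of assay. Several design methods are mixed in this list. The assay is AlphaSeq: two haploid yeast populations carry antibody and antigen on their surface. The frequency of each diploid, read from paired DNA barcodes, reflects how well the two displayed proteins bind. Read counts were normalised to the haploid input and turned into Kd by a linear fit to BCL2-family pairs of known affinity, for each replicate. There are six technical replicates.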

Parent scFv Ab-14: VH joined to VL by the linker GGGGSGGGGSGGGGS. Changes lie in the light chain CDRs alone.
VH: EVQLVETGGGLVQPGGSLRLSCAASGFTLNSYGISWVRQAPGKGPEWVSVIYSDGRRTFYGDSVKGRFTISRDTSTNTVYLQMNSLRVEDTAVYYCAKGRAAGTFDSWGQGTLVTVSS
VL: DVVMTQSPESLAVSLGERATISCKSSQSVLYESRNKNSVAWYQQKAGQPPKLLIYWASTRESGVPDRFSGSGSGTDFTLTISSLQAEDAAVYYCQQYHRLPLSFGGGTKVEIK

The whole VL of each variant is written out. Affinities are written as log10 Kd with Kd in nM; a lower number is a better binder. Replicates are averaged; those with no signal do not enter the mean. "ND" marks a missing value. The strain was present, yet no cells mated with the target were sequenced in that replicate, which points to weak or no binding. The authors' rule: three or more of the six replicates give a measured affinity, fewer mean a poor binder. The range of this assay differs from that of the first round, and the authors advise against merging the two. The parent sequence was in this pool as ten entries: three were never detected, three once, and four in most replicates, with averages from 0.34 to 2.37. Nonspecific signal, from three strains lacking the peptide, appeared in 4% of pairings of all light chain designs, centred on 2.64 (5% of these signals below 1.59); values are not corrected for it.

For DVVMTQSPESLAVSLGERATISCRVRLNEGEIDMHWYNIAWYQQKAGQPPKLLIYSVDIRADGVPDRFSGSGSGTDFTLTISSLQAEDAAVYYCQQYSRLPLFFGGGTKVEIK, the assay gave 0.56, 0.37, 0.25, 0.75, 0.56, 0.58 (mean 0.51).
For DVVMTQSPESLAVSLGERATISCKLQMSQLYESRNKNSVAWYQQKAGQPPKLLIYNASTRESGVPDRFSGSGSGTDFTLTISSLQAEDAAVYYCQQYHRLPLSFGGGTKVEIK, the assay gave 0.32, 0.15, 0.10, 0.12, 0.36, 0.66 (mean 0.29).
For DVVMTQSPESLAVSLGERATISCGIQSQMDGTSAVKENIAWYQQKAGQPPKLLIYNEAERLRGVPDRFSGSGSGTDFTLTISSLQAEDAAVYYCQQYQRLPLTFGGGTKVEIK, the assay gave 0.47, 0.99, 0.64, 2.12, 0.45, 0.72 (mean 0.90).
For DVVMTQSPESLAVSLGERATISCKSSQAVLVESRNKNSVAWYQQKAGQPPKLLIYDASTRESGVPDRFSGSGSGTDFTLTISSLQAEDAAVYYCQQYHRLPLSFGGGTKVEIK, the assay gave 0.17, 0.22, 0.04, -0.08, 0.04, 0.22 (mean 0.10).
For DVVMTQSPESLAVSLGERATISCKLPQSTLYESRNKNSVAWYQQKAGQPPKLLIYEASTRESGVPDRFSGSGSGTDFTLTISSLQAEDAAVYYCQQYHRLPLSFGGGTKVEIK, the assay gave -0.10, -0.17, -0.30, -0.25, -0.43, -0.27 (mean -0.25).
For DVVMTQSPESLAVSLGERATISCTISQSVNMTSHGKNSVAWYQQKAGQPPKLLIYQAEMREEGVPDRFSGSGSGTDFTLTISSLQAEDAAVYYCQQYDRLPLSFGGGTKVEIK, the assay gave 1.56, 1.54, 1.41, 1.38, 1.69, 1.59 (mean 1.53).
For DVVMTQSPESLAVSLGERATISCTISGVMQTVSHSKNNVAWYQQKAGQPPKLLIYEVSMRLEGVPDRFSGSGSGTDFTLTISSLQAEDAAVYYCQQYFRLPLEFGGGTKVEIK, the assay gave 1.42, 0.58, 0.77, 0.96, 0.88, 0.86 (mean 0.91).
For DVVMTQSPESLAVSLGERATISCKFSFSVLYESHNKNSVAWYQQKAGQPPKLLIYNASTRMSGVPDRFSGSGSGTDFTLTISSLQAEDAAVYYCQQYHRLPLSFGGGTKVEIK, the assay gave 1.41, 1.10, 1.47, 0.61, 1.16, 2.08 (mean 1.31).
For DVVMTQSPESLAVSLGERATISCKISQSWGYESRNSNSVAWYQQKAGQPPKLLIYEASTREDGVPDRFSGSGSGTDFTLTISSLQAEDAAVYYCQDYHRLPLSFGGGTKVEIK, the assay gave 0.62, 0.62, 0.50, 0.64, 0.66, 0.43 (mean 0.58).
For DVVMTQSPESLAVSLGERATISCKLRFSVMEESRNKNSVAWYQQKAGQPPKLLIYSASTREWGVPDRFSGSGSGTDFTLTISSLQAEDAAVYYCQQYHRLPLSFGGGTKVEIK, the assay gave 0.28, 0.20, 0.23, 0.10, 0.11, 0.21 (mean 0.19).
For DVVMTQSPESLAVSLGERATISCNIYQAMHTLMQAKNNVAWYQQKAGQPPKLLIYDVTERNNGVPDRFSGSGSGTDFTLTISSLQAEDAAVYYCQQYFRLPLSFGGGTKVEIK, the assay gave 0.53, 0.42, -0.17, 0.24, 0.33, 0.37 (mean 0.29).
For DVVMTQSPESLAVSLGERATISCHISYSMQHLSKNKNSVAWYQQKAGQPPKLLIYNQQTREQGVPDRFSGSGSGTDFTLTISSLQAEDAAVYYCQQYHMLPLSFGGGTKVEIK, the assay gave 0.87, 0.70, 0.25, 0.11, 1.01, 0.80 (mean 0.62).
For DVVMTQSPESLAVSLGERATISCHISQSFMTESVWRNSVAWYQQKAGQPPKLLIYHQSTREEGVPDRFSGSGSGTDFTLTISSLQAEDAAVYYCQQYDRLPLSFGGGTKVEIK, the assay gave 0.80, 0.08, 0.48, 1.07, 0.24, 0.28 (mean 0.49).
For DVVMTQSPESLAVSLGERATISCMFSQLVYTGQRTRNAVAWYQQKAGQPPKLLIYQASTRENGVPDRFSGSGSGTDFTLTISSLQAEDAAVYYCQQYHHLPLSFGGGTKVEIK, the assay gave 1.52, 1.23, 1.73, 1.19, 0.59, 1.61 (mean 1.31).
For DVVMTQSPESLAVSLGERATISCSISGFMKSLSVHANSVAWYQQKAGQPPKLLIYDMTNRENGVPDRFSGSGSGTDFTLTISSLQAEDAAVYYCQQYDRLPLSFGGGTKVEIK, the assay gave 0.98, 0.97, 0.88, 0.59, 0.86, 0.90 (mean 0.86).
For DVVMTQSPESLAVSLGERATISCKLQQSKLYESRNKNSVAWYQQKAGQPPKLLIYNASQRESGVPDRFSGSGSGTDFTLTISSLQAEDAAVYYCQQYHRLPLSFGGGTKVEIK, the assay gave 0.60, 0.36, 0.24, 0.11, 0.06, 0.42 (mean 0.30).
For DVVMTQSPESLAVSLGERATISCTISQVMNTLTRHGNNVAWYQQKAGQPPKLLIYDLQERESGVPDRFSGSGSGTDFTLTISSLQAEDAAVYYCQQYERLPLSFGGGTKVEIK, the assay gave 2.12, 1.38, 1.14, 1.21, 1.30, 1.12 (mean 1.38).
For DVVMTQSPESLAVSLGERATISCMFSQLVYTGSRAKNAVAWYQQKAGQPPKLLIYQASTRENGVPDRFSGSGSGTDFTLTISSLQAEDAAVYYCQQYHRLPLSFGGGTKVEIK, the assay gave 0.37, 0.30, -0.03, -0.04, -0.32, 0.25 (mean 0.09).
For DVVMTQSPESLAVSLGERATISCKVSEFMRGLMMRKDNIAWYQQKAGQPPKLLIYDNNTRNSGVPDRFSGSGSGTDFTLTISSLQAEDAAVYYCQQYDRLPLSFGGGTKVEIK, the assay gave 1.15, 1.77, 1.87, 1.25, 1.70, 2.58 (mean 1.72).
For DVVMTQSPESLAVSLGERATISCKLMQSDLYESRNKNSVAWYQQKAGQPPKLLIYHASTRESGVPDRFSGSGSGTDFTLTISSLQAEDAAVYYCQQYHRLPLSFGGGTKVEIK, the assay gave 0.08, -0.03, 0.03, 0.04, 0.25, 0.10 (mean 0.08).
For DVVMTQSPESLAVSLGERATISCKSSQSVVYESREKNNVAWYQQKAGQPPKLLIYQASTREEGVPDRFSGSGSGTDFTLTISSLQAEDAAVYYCQQHHRLPLSFGGGTKVEIK, the assay gave ND, ND, ND, ND, ND, ND.
For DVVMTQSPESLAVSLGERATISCKLSNWQFDSYGNKESVAWYQQKAGQPPKLLIYENEAVSNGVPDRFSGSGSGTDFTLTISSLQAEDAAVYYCQQYSLLPLSFGGGTKVEIK, the assay gave ND, ND, ND, ND, 2.75, 3.22 (mean 2.99).
For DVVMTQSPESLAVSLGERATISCKSSQSVLYESCNKNSVAWYQQKAGQPPKLLIYDASTRESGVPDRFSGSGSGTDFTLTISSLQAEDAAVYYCQQKHRLPLSFGGGTKVEIK, the assay gave ND, ND, ND, ND, ND, ND.
For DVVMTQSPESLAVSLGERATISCKLQQSWLYESRNKNSVAWYQQKAGQPPKLLIYNASTRLSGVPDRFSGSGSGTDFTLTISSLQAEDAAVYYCQQYHRLPLSFGGGTKVEIK, the assay gave -0.17, -0.20, -0.18, -0.71, 0.05, -0.36 (mean -0.26).

Top 4 of the variants detected in all replicates, tightest first:

VL	log10 Kd (nM) by replicate	mean log10 Kd (nM)
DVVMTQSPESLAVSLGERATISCKLQQSWLYESRNKNSVAWYQQKAGQPPKLLIYNASTRLSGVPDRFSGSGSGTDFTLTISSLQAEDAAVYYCQQYHRLPLSFGGGTKVEIK	-0.17, -0.20, -0.18, -0.71, 0.05, -0.36	-0.26
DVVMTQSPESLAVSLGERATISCKLPQSTLYESRNKNSVAWYQQKAGQPPKLLIYEASTRESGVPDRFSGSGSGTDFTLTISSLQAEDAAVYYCQQYHRLPLSFGGGTKVEIK	-0.10, -0.17, -0.30, -0.25, -0.43, -0.27	-0.25
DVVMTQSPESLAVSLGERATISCKLMQSDLYESRNKNSVAWYQQKAGQPPKLLIYHASTRESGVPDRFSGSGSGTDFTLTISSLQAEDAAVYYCQQYHRLPLSFGGGTKVEIK	0.08, -0.03, 0.03, 0.04, 0.25, 0.10	0.08
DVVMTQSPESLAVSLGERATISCMFSQLVYTGSRAKNAVAWYQQKAGQPPKLLIYQASTRENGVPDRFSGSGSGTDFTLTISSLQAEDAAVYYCQQYHRLPLSFGGGTKVEIK	0.37, 0.30, -0.03, -0.04, -0.32, 0.25	0.09